Amino acid sequences for entries named in this document (tags omitted). A change or cut given only in a name is not applied to a line headed by its entry.
UniProt Q15910: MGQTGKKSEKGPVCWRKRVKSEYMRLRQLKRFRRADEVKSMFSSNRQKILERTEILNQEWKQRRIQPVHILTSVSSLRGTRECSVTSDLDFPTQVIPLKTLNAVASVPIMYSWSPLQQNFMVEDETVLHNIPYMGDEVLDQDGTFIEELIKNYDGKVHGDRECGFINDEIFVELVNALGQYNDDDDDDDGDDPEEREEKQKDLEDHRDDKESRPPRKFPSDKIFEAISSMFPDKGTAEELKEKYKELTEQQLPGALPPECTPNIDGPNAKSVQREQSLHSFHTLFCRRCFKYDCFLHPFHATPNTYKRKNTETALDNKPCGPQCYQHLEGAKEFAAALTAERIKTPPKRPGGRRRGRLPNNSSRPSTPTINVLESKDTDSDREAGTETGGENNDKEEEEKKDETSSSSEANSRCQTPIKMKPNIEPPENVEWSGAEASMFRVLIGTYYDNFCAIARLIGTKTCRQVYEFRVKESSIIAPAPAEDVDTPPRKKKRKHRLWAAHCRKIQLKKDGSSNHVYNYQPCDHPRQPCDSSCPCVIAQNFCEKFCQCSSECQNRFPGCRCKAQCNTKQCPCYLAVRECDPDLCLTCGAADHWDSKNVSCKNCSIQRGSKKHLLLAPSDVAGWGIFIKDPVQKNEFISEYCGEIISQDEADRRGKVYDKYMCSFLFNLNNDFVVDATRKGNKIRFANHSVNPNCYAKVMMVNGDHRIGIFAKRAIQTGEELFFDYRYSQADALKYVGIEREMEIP

According to patent US10266542B2 (dated 2019):

Target: purified EZH2 enzyme (Homo sapiens (Human), UniProt Q15910)
Assay: biochemical

SMILES | IC50
COC(c1cc(Cl)c2c(c1Cl)C(=O)N(Cc1c(=O)[nH]c(C)c3ccoc13)CC2)C1CN(C)C1 (centres unmarked) [Example 10, 7-((5,8-dichloro-7-(methoxy(1-methylazetidin-3-yl)methyl)-1-oxo-3,4-dihydroisoquinolin-2(1H)-yl)methyl)-4-methylfuro[3,2-c]pyridin-6(5H)-one] | 0.012 µM
Cc1nnn(C)c1-c1cc(Cl)c2c(c1Cl)C(=O)N(Cc1c(=O)[nH]c(C)c3ccoc13)CC2 [Example 14, 7-((5,8-dichloro-7-(1,4-dimethyl-1H-1,2,3-triazol-5-yl)-1-oxo-3,4-dihydroisoquinolin-2(1H)-yl)methyl)-4-methylfuro[3,2-c]pyridin-6(5H)-one] | 0.01 µM
